In patent US6326465A, “Immunomodulatory polypeptides derived from the invariant chain of MHC class II” (The Johns Hopkins University, priority 1998, dated 2001):

Tests used:
[1] = test system: tumor cells; details: high-dose 50,000-100,000 u/d with CsA; cited from earlier work
[2] = test system: tumor cells; test: Cytokine modulation of CsA-induced SGVHD in the rat model; format: in vivo; details: low-dose 5-10,000 units/d alone
Source text: One approach therefore was to amplify the autoreactive effector cells by the administration of IL-2. […] This activity of the interferons in SGVHD appears to be mediated through increasing the expression of MHC class II determinants on the tumor, as the interferons have no direct activity on their own in this animal model. Moreover, resolution of the tumor was associated with the development of tumor-specific immunity as the rats were immune to rechallenge with the tumor after resolution of the SGVHD. […] This dose of IL-2, however, appears to have an additive effect when used in combination with interferon-γ, increasing the tumor cell kill by 1-2 logs compared to interferon-γ alone.

[3] = test system: CRL 1662 myeloma cells; test: Antitumor activity after adoptive transfer of syngeneic GVHD effector T cells; format: in vivo, rat; details: with syngeneic GVHD effector cells; 2.5×10^4 CRL 1662 cells; cytokines for ten days
Description: Nylon wool nonadherent spleen cells (50×10^6) from Lou M animals with syngeneic GVHD were adoptively transferred into secondary Lou M recipients (irradiated, bone marrow reconstituted) challenged with 2.5×10^4 CRL 1662 myeloma cells. Animals were treated with gamma-interferon (50,000 U/d), IL-2 (10,000 U/d), or a combination for ten days. Survival was assessed and log tumor cell kill was estimated from dose response studies (see Table 6).

IL-2: cytokine
exacerbation of the clinical autoimmune syndrome [1]: death of all the animals
immunomodulatory effects on CsA-induced SGVHD [2]: no immunomodulatory effects
Estimated Log Tumor Cell Kill [3]: 2.0-2.5
